{"sequences": {"note": "Sequences of proteins named here, by UniProt entry; tags and fusion partners are left off. A change or cut given only in a name is not applied to a line headed by its entry.", "UniProt Q99720, whole entry": "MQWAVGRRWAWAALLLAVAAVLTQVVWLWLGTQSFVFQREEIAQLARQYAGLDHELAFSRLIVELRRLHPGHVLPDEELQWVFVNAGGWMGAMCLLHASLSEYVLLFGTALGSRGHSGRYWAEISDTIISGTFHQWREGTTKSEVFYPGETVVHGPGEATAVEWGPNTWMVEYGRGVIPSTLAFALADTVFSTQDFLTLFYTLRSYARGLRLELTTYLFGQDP", "UniProt Q92731, whole entry": "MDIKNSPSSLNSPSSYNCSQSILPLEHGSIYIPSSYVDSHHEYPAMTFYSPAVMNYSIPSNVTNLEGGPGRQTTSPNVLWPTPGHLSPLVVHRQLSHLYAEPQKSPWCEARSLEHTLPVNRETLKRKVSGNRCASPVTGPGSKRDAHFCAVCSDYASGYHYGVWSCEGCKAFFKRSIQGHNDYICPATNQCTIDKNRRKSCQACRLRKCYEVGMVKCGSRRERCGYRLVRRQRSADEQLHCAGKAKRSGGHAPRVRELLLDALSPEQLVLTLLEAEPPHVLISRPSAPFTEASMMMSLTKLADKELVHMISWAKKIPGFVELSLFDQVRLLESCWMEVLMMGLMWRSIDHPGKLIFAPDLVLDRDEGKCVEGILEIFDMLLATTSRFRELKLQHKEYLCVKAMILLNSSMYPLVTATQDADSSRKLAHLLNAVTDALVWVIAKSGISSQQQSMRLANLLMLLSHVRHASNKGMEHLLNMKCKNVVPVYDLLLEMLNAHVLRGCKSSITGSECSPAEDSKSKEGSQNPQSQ", "UniProt Q12809": "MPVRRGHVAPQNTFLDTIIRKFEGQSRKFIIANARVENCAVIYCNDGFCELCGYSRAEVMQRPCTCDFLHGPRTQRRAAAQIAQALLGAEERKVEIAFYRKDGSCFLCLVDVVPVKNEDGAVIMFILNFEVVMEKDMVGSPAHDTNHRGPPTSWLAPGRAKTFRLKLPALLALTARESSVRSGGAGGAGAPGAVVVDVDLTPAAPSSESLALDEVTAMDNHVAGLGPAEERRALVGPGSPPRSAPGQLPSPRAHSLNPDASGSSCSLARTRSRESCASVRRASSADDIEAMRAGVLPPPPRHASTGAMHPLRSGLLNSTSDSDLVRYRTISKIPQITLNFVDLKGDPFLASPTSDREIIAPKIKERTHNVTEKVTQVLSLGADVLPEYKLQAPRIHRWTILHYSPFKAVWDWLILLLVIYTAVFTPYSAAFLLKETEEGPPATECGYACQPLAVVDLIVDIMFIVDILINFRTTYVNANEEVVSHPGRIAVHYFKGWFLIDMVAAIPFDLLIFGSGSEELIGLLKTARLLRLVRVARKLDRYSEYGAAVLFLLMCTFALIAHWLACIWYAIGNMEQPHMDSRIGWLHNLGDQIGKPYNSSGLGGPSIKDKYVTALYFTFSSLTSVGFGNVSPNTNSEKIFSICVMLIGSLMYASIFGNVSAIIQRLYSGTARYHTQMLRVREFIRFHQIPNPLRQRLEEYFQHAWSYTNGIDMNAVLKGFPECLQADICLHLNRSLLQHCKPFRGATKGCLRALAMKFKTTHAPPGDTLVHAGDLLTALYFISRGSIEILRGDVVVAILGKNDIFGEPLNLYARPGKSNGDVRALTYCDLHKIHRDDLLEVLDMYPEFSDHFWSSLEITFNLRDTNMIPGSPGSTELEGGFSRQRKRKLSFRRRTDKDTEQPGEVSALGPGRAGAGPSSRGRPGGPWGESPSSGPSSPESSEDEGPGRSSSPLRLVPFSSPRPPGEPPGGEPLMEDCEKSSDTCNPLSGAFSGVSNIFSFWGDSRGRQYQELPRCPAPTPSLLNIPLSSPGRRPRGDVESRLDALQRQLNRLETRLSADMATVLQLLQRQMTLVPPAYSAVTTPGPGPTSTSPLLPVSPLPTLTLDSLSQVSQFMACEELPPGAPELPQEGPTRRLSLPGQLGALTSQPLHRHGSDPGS", "UniProt P05177, whole entry": "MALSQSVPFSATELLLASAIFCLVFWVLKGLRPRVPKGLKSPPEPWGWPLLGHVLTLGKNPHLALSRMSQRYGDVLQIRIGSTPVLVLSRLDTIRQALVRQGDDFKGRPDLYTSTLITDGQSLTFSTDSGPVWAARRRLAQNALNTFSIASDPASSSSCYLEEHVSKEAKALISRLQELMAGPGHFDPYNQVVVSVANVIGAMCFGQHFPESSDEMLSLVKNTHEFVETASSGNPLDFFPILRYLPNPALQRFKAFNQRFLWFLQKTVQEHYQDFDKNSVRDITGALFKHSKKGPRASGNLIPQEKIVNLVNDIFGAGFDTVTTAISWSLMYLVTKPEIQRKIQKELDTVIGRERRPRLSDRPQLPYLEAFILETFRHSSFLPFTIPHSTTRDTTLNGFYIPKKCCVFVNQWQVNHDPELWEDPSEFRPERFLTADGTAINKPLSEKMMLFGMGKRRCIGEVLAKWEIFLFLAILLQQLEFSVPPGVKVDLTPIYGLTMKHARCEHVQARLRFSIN", "UniProt P30542, whole entry": "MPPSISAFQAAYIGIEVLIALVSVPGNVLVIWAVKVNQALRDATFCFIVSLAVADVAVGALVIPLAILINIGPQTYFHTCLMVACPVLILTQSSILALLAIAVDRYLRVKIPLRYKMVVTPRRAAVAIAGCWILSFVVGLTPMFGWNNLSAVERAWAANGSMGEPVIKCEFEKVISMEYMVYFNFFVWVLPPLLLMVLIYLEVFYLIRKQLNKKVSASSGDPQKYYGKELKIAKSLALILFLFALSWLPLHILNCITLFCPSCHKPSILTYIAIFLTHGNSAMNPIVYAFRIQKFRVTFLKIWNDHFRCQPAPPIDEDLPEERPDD"}, "source": "ChEMBL document CHEMBL1909046", "about": "“DrugMatrix in vitro pharmacology data”", "key": {"[1]": {"target": "Sigma non-opioid intracellular receptor 1 (Homo sapiens, UniProt Q99720)", "experiment": "DRUGMATRIX: Sigma1 radioligand binding (ligand: [3H] Haloperidol)", "format": "cell membranes, Jurkat, Membrane", "details": "Not Active = under 50% inhibition at 10 µM"}, "Estrogen receptor beta": {"target": "Estrogen receptor beta (Homo sapiens, UniProt Q92731)", "details": "sf9"}, "[2]": {"target": "Voltage-gated inwardly rectifying potassium channel KCNH2 (Homo sapiens, UniProt Q12809)", "details": "hek293"}, "Cytochrome P450 1A2": {"target": "Cytochrome P450 1A2 (Homo sapiens, UniProt P05177)", "details": "bti-tn-5b1-4"}, "Adenosine receptor A1": {"target": "Adenosine receptor A1 (Homo sapiens, UniProt P30542)", "format": "cell membranes, Membrane", "details": "cho"}}, "data": [{"smiles": "CN(C)CCCN1c2ccccc2Sc2ccc(Cl)cc21", "note": "[CHLORPROMAZINE]", "values": [{"measurement": "Ki", "setting": "[1]", "result": 0.189, "unit": "µM"}]}, {"smiles": "C[C@]12CC[C@@H]3c4ccc(O)cc4CC[C@H]3[C@@H]1CC[C@@H]2O", "note": "[ESTRADIOL]", "values": [{"measurement": "IC50", "setting": "Estrogen receptor beta", "result": "Not Active"}]}, {"smiles": "Nc1nnc(-c2cccc(Cl)c2Cl)c(N)n1", "note": "[LAMOTRIGINE]", "values": [{"measurement": "IC50", "setting": "[2]", "result": "Not Active"}, {"measurement": "Ki", "setting": "[2]", "result": "Not Active"}]}, {"smiles": "O=c1cc(-c2ccccc2)oc2c1ccc1ccccc12", "note": "[ALPHA-NAPHTHOFLAVONE]", "values": [{"measurement": "Ki", "setting": "Cytochrome P450 1A2", "result": "Note: corresponding IC50 reported as Active"}]}, {"smiles": "Cn1c(=O)c2c(ncn2C)n(C)c1=O", "note": "[CAFFEINE]", "values": [{"measurement": "IC50", "setting": "Adenosine receptor A1", "result": "Not Active"}]}]}
